# From patent publication US6919350B2 (priority 1996, dated 2005)
# Experiments:
# [1] = system: rats; assay: Analgesic effects of 3290W93 and fentanyl in rats (Example 14); assay type: in vivo, rat
# [2] = system: rats
# [3] = system: Male Sprague Dawley rats; assay: Respiratory depression, transcutaneous pCO2 during alfentanil infusion in rats (Example 13); details: for effect on blood pCO2 levels: compound administered alone
# [4] = system: Male Sprague Dawley rats; assay: Tail pinch test, alfentanil induced analgesia in rats (Example 13); details: for analgesic effect: compound administered alone
# [5] = test compound 60 μg/kg/min with alfentanil 6 μg/kg/min and compound of Example 1 60 μg/kg/min
smiles,measurement,setting,value
C=CCN1C[C@H](C)N([C@@H](c2cccc(O)c2)c2cccc(C(=O)N(C)c3cccc(F)c3)c2)C[C@H]1C [listing 1 of 2 here],analgesia (in words),[1],high levels of analgesia
C=CCN1C[C@H](C)N([C@@H](c2cccc(O)c2)c2cccc(C(=O)N(C)c3cccc(F)c3)c2)C[C@H]1C [listing 2 of 2 here],respiratory depression (in words),[2],did not substantially increase respiratory depression except at high doses
same,separation between analgesic and respiratory depressant effects compared with fentanyl,[2],five times greater separation
same,therapeutic ratio (respiratory depression ED50 divided by analgesia ED50),[2]; i.v.,25
C=CCN1C[C@@H](C)N([C@H](c2ccc(C(=O)N(CC)CC)cc2)c2cccc(O)c2)C[C@H]1C,pCO2 level above baseline,[3]; alfentanil 6 μg/kg/min with concurrent infusion of test compound 60 μg/kg/min,22%
same,pCO2 level above baseline,[3]; alfentanil 6 μg/kg/min with concurrent infusion of test compound 120 μg/kg/min,17%
same,effect on blood pCO2 levels,[3],no effect on blood pCO2 levels
same,effect on tail pinch latency,[4]; alfentanil 6 μg/kg/min with concurrent test compound 60 or 120 μg/kg/min,remained unaffected
same,analgesic effect,[4],no analgesic effect
C=CCN1C[C@@H](C)N([C@@H](c2ccc(C(=O)N(CC)CC)cc2)c2cccc(O)c2)C[C@H]1C,effect on blood pCO2 levels,[3],no effect on blood pCO2 levels
same,pCO2 level above baseline,[3]; [5],33%
same,analgesic effect,[4],no analgesic effect
same,tail pinch latency,[4]; [5],20 s
